Biological target: T1, Arabidopsis HPPD (Arabidopsis thaliana, UniProt P93836)
T1 construct: made in house; host or cells: E. coli BL21 (DE3) codon+ RP
T1 sequence (P93836 1-445): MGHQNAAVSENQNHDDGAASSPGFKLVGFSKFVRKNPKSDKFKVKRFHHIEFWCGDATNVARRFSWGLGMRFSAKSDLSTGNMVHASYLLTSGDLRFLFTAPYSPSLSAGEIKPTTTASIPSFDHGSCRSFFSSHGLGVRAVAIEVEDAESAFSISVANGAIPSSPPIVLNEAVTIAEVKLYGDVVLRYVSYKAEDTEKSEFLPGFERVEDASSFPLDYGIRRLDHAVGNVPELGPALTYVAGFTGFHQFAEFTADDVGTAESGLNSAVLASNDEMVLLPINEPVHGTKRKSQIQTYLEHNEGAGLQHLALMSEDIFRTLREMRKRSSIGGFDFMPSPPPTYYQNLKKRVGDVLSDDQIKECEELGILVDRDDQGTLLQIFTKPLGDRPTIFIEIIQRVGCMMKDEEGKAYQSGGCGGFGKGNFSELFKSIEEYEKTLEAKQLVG
Assay: kon from assay based measurements of the rate of activity loss
Assay type: biochemical
Excerpt: Firstly HPLC assays monitoring the formation of HGA at various times are run as described the preceding example 9. Even in the absence of added inhibitors, progress curves are not linear reflecting progressive inactivation of the enzyme under assay conditions. At increasing concentrations of inhibitor the curvature becomes much more marked. […]
In a more direct assay-based method for measuring kon values, test HPPD enzyme is reacted with inhibitor for a range of times and then the inhibition reaction is effectively stopped by addition of a high concentration of the (competitive) substrate HPP. […] Note that, because the initial, fast, reaction of inhibitors with HPPD which results in complete loss of activity is with only half the sites ultimately measurable by binding stoichiometry, the relevant enzyme concentration here for simulation and for calculation of rate constants is half the enzyme concentration as measured in long-term titration binding studies as described above. […]

For `CS(=O)(=O)c1ccc(C(=O)C2C(=O)CCCC2=O)c([N+](=O)[O-])c1` [Structure I, 2-(Nitro-4-methanesulphonylbenzoyl)-cyclohexane-1,3-dione], the kon was 250000 M⁻¹ s⁻¹.

— US20090172831A1, “Methods for the production of plants resistant to HPPD herbicides” (Syngenta Limited, priority 2000, published 2009)
